Source: patent US10358436B2, “Kinase inhibitors and method of treating cancer” (University Health Network, priority 2010, dated 2019)

Chains of the proteins cited; added tags and fusions are not shown.
UniProt Q96GD4, whole entry: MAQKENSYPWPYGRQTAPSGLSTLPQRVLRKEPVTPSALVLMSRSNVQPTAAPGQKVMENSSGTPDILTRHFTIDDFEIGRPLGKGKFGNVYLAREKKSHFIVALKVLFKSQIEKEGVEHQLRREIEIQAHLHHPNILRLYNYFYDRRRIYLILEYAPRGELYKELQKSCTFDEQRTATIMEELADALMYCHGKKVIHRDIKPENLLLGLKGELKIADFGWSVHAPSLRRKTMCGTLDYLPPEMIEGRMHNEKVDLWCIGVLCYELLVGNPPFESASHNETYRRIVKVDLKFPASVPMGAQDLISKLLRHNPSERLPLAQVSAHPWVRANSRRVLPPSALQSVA

Target: Aurora B (Homo sapiens (Human), UniProt Q96GD4)
Assay: Aurora B inhibition assay (Z-Lyte)
Format: biochemical
Settings: read-out: Aurora B IC50 Ranges

SMILES	IC50
COc1ccc2c(c1)[C@]1(C[C@H]1c1ccc3c(-c4ccc(N5CCN(C(C)C)CC5)cc4)n[nH]c3c1)C(=O)N2 (relative stereo) [Example A96, (1R*,2S*)-2-(3-(4-(4-isopropylpiperazin-1-yl)phenyl)-1H-indazol-6-yl)-5′-methoxyspiro[cyclopropane-1,3′-indolin]-2′-one]	< 100 nM
Cc1ccc2c(c1)[C@]1(C[C@H]1c1ccc3c(/C=C/c4ccc(CN(C)C)cc4)n[nH]c3c1)C(=O)N2 (relative stereo) [Example A169, (1R*,2S*)-(E)-2-(3-(4-((dimethylamino)methyl)styryl)-1H-indazol-6-yl)-5′-methylspiro[cyclopropane-1,3′-indolin]-2′-one 2,2,2-trifluoroacetate]	< 100 nM
